Measurements: paper PMC5147891 (PLoS ONE, 2016)

Sequences of proteins named here, by UniProt entry; tags and fusion partners are left off.
UniProt P35372, whole entry: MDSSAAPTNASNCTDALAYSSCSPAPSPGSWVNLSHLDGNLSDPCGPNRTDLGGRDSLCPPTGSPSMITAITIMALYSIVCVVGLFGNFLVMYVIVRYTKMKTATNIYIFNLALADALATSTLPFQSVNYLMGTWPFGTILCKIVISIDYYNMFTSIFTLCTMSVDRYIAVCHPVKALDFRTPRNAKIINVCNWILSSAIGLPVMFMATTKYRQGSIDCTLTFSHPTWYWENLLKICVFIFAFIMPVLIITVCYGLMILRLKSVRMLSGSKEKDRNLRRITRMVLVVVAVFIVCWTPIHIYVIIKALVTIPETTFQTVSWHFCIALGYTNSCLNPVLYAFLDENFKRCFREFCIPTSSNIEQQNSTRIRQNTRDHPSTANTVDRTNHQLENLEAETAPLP

Target: T1, human mu-opioid receptors (hMOR) (Homo sapiens, UniProt P35372)
T1 construct: expressed in transfected cells
Experiment: [35S]GTPγS binding (G-protein activity), CHO-hMOR membranes
Type: biochemical
Settings: SERMs 10 μM, DAMGO 1 μM
Method: CHO-hCB1, CHO-hCB2 and CHO-hMOR cells were homogenized individually with 10 complete strokes utilizing a 7ml Dounce glass homogenizer in an ice-cold buffer containing 50 mM HEPES pH 7.4, 3 mM MgCl2, and 1 mM EDTA as described previously. The homogenized samples were then centrifuged at 40,000 × g for 10 min at 4°C. Supernatants were discarded; the pellets re-suspended in the buffer, homogenized again, and centrifuged similarly twice more. After the final centrifugation step, supernatants were discarded and pellets were re-suspended in ice-cold 50 mM HEPES, pH 7.4 to achieve an approximate protein concentration of 10 mg/ml. […] A small aliquot of each membrane preparation was removed prior to freezing and the protein concentration was determined using BCA Protein Assay (Thermo Fisher Scientific, Waltham, MA).
The GTPγS binding assay to measure G-protein activation was performed as previously described. […] Nonspecific binding was defined by the amount of radioactivity remaining in the presence of 10 μM non-radiolabeled GTPγS. […] Four ml of scintiverse scintillation fluid (Fisher Scientific, Waltham, MA) was added to the filters and the amount of radioactivity was quantified 24 hr later utilizing liquid scintillation spectrophotometry.
Data presented are expressed as mean ± standard error of the mean (S.E.M.) for a minimum of three experiments, each performed in triplicate. […]

With DAMGO the “Effect on basal [35S]GTPγS binding” value was “increased”.
